The target of the assay is recombinant HLA-G (TP305216, OriGene) (human) (UniProt P17693). Briefly: ELISA. (In an ELISA, binding on a coated surface is turned into a signal by an enzyme label.)

For orientation: IC50 means the midpoint of a concentration-inhibition curve. With HLA-G mAb 87G, the half-maximal inhibitory concentration (IC50) amounted to 37.8 nM.
